Columns and labels:
[1] = target: cardiac tropomyosin (porcine) (UniProt P42639); assay: SPR; Biacore 2000; cardiac G-actin (pig) or tropomyosin immobilised on CM5 chips by amino coupling at 150 RU; troponin flowed at 0.01-10 uM
[2] = target: cardiac G-actin (from pig) (pig); assay: as above
[3] = target: N-terminal fragment of cardiac myosin binding protein C, domains C0-C2 (cMyBPC-C0C2) (human) (UniProt Q14896); assay: MST; Monolith NT.115; His6-cMyBPC-C0C2 labelled with RED-tris-NTA, dilution series of cTn complexes or subunits; fit to the Hill function
[4] = target: cardiac tropomyosin (porcine) (pig) (UniProt P42639); assay: SPR; Biacore 2000; tropomyosin immobilised on a CM5 chip by amino coupling at 150 RU; troponin flowed at 0.01-10 uM; n = 3
[5] = target: cardiac actin (from pig) (pig); assay: SPR; Biacore 2000; cardiac G-actin (from pig) immobilised on a CM5 chip by amino coupling at 150 RU; troponin flowed at 0.01-10 uM; n = 3

Row | Kd [2] [nM] | Kd [3] [nM] | koff [4] [s⁻¹] | kon [4] [M⁻¹ s⁻¹] | koff [5] [s⁻¹] | kon [5] [M⁻¹ s⁻¹] | Substance | further results
1 | 3200 |  |  |  |  |  | human cardiac troponin complex containing cTnI-R170G (from UniProt P19429 1-210; P45379 1-298; P63316 1-161) | Kd [1]: 120 nM
2 |  | 211 |  |  |  |  | human cardiac troponin complex containing cTnI-R170G (from UniProt P19429 1-210; P45379 1-298; P63316 1-161) (complex; other documents disagree on this pair) | 
3 |  |  | 3.1 | 2.86e+07 | 0.0174 | 5430 | human cardiac troponin complex containing cTnI-R170G (from UniProt P19429 1-210; P63316 1-161; P45379 1-298) | 
4 | 6320 |  |  |  |  |  | human cardiac troponin complex containing cTnI-R170W (from UniProt P19429 1-210; P45379 1-298; P63316 1-161) | 
5 |  | 336 |  |  |  |  | human cardiac troponin complex containing cTnI-R170W (from UniProt P19429 1-210; P45379 1-298; P63316 1-161) (complex; other documents disagree on this pair) | 
6 |  |  | 1.63 | 7.1e+06 | 0.0165 | 2610 | human cardiac troponin complex containing cTnI-R170W (from UniProt P19429 1-210; P63316 1-161; P45379 1-298) | 
7 | 5340 |  |  |  |  |  | human cardiac troponin complex containing wildtype cTnI (from UniProt P19429 1-210; P45379 1-298; P63316 1-161) | 
8 |  | 337 |  |  |  |  | human cardiac troponin complex containing wildtype cTnI (from UniProt P19429 1-210; P45379 1-298; P63316 1-161) (complex; other documents disagree on this pair) | 
9 |  |  | 32.4 | 1.58e+07 | 0.0207 | 3880 | human cardiac troponin complex containing wildtype cTnI (from UniProt P63316 1-161; P45379 1-298) | 

Source: article PMC7077804
